Data on one compound can be found in patent publication US20090131470A1, “PYRAZOLE-SUBSTITUTED BENZIMIDAZOLE DERIVATIVES FOR USE IN THE TREATMENT OF CANCER AND AUTOIMMUNE DISORDERS” (priority 2005, published 2009).

By UniProt entry, the sequences of proteins in these tests, tags left out.
UniProt O14757, whole entry: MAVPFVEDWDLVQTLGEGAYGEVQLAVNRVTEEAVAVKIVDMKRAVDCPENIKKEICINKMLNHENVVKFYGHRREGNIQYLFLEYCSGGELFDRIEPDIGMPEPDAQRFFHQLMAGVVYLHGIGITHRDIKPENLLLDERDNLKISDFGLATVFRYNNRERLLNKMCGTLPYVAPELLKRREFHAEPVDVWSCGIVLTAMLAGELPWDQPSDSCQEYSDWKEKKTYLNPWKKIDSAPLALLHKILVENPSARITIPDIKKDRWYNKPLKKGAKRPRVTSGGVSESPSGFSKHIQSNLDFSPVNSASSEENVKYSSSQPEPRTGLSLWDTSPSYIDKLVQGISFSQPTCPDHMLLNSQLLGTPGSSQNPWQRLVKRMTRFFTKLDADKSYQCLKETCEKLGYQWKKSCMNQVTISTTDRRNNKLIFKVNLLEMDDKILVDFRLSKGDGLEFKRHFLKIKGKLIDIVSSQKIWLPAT
UniProt O15530, whole entry: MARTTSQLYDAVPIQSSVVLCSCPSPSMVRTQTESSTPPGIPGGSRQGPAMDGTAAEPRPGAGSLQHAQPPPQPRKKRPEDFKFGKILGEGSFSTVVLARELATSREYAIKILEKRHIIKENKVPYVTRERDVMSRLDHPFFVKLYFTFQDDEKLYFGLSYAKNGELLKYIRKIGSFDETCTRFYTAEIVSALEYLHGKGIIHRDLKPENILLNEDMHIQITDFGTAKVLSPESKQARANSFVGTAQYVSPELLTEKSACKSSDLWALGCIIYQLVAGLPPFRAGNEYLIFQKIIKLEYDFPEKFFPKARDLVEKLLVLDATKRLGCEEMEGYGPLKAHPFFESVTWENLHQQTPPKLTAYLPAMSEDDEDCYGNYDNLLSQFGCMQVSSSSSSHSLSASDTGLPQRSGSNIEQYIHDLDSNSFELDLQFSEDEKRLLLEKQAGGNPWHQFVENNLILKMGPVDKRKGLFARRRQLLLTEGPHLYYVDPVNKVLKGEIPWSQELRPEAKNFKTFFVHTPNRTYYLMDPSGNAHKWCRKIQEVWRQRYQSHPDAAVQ
UniProt P31749, whole entry: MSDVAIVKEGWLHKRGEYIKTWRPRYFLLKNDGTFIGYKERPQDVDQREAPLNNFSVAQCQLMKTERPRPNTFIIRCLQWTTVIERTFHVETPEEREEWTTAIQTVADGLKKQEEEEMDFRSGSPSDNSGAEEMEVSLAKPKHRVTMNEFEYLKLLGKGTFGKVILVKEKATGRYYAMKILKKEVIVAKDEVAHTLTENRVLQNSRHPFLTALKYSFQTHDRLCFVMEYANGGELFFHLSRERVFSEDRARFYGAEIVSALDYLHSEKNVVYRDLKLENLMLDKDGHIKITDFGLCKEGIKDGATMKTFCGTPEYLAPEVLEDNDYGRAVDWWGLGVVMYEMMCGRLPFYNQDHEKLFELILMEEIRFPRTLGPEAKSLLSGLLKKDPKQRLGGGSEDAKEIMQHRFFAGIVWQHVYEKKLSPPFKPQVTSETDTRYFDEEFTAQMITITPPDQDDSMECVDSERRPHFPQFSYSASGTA

pIC50: −log10 of the molar value.

Holding throughout (type): biochemical
Test [1] concerns the target CDK-2 enzyme, complexed with cyclin A (Homo sapiens, UniProt P24941). Nature of the test: CDK2 kinase assay (33P peptide phosphorylation). The note with it: read-out: CDK-2 IC50; 0.1 mM ATP, cyclin A complex.
For test [2], the target named is GST-Chk1 enzyme (Homo sapiens, UniProt O14757). In words: Chk1 kinase assay (33P Chktide phosphorylation). As to conditions: read-out: CHK-1 IC50; 0.01 mM ATP, 40 minutes at 30° C.
In test [3] the target is PKA (Homo sapiens, UniProt P17612). Nature of the test: PKA kinase assay (Kemptide substrate). The note with it: read-out: PKA IC50, 100 μM ATP.
Test [4] has as its target PDK1 (Homo sapiens, UniProt O15530). Nature of the test: PDK1 kinase assay (33P peptide phosphorylation). The note with it: read-out: PDK-1 IC50; 0.01 mM ATP, 60 min at 30° C.
In test [5] the target is Akt1 (Homo sapiens, UniProt P31749). Nature of the test: Akt1 kinase assay (Histone H1 substrate). The note with it: read-out: AKT-1 IC50, 200 μM ATP. On the procedure:
Assays for the cyclin dependent kinase activity were carried out by monitoring the phosphorylation of a synthetic peptide, […]. The assay mixture containing the inhibitor and CDK-2 enzyme, complexed with cyclin A (0.4 U/ml) was mixed together in a microtiter plate in a final volume of 50 μl and incubated for 40 min at 30° C. The assay mixture contained 0.1 mM unlabeled ATP, 0.01 μCi/μl ^33P-γ-ATP, 0.03 mM peptide, 0.1 mg/ml BSA, 7.5 mM magnesium acetate, 50 mM HEPES-NaOH, pH 7.5. The reaction was stopped by adding 50 μl of 50 mM phosphoric acid. 90 μl of the mixture were transferred to a pre-wetted 96-well Multiscreen MAPHNOB filtration plate (Millipore) and filtered on a vacuum manifold. The filter plate was washed with 3 successive additions of 200 μl 50 mM phosphoric acid and then with 100 μl methanol. The filtration plate was dried for 10 min at 65° C., scintillant added and phosphorylated peptide quantified in a scintillation counter (Trilux, PerkinElmer)
Protocol for the Akt assay is the same for CDK2 except that, 3 nM Akt1 (Upstate) was used with Histone H1 as substrate with a final ATP concentration of 200 μM. The reaction was incubated at 30° C. for 40 minutes.

What is called pIC50 is the negative decadic logarithm of the IC50, by convention in mol/L. `Cc1[nH]nc(-c2nc3ccc(-c4cc5cc(Cl)ccc5[nH]4)cc3[nH]2)c1C(=O)NC1CCNCC1`: the pIC50 in test [1] is 4.89; in test [2], 7.24; in test [3], 5.44; in test [4], 6.81; in test [5] it was less than 5.00.
